Some results for these compounds are left out of this collection, so the calls shown say nothing about other tests.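 96-well plates; 48 h exposure; 5 concentrations. Endpoints by linear interpolation between flanking doses. Not reached: highest tested concentration assigned. TGI: concentration producing complete growth inhibition.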
What was measured:
Experiment in all cases: growth of human tumour cells (NCI), 48 h
[1] = tested on: NCI-H460 lung
[2] = tested on: SK-MEL-5 melanoma
[3] = tested on: T-47D breast
[4] = tested on: HCT-116 colon
[5] = tested on: HS 578T breast
[6] = tested on: M14 melanoma
[7] = tested on: RPMI-8226 leukemia
[8] = tested on: SN12C renal
[9] = tested on: NCI-H226 lung
[10] = tested on: UACC-62 melanoma
[11] = tested on: COLO 205 colon
[12] = tested on: OVCAR-8 ovarian
[13] = tested on: ACHN renal
[14] = tested on: NCI-H522 lung
[15] = tested on: OVCAR-5 ovarian
[16] = tested on: CCRF-CEM leukemia
[17] = tested on: BT-549 breast
[18] = tested on: MDA-MB-231 breast
[19] = tested on: HL-60(TB) leukemia
[20] = tested on: SK-MEL-28 melanoma
[21] = tested on: MOLT-4 leukemia
[22] = tested on: NCI-H322M lung
[23] = tested on: SNB-75 CNS
[24] = tested on: SF-295 CNS
[25] = tested on: U251 CNS
[26] = tested on: UACC-257 melanoma
[27] = tested on: MDA-MB-435
[28] = tested on: MDA-N
[29] = tested on: SR leukemia
[30] = tested on: 786-0 renal
[31] = tested on: SK-MEL-2 melanoma
[32] = tested on: NCI/ADR-RES ovarian
[33] = tested on: HOP-62 NSCLC
[34] = tested on: PC-3 prostate
[35] = tested on: HOP-92 NSCLC
[36] = tested on: SF-539 CNS
[37] = tested on: CAKI-1 renal
[38] = tested on: SNB-19 CNS
[39] = tested on: A549 NSCLC
[40] = tested on: A498 renal
[41] = tested on: TK-10 renal
[42] = tested on: LOX IMVI melanoma
[43] = tested on: HT29 colon
[44] = tested on: KM12 colon
[45] = tested on: EKVX NSCLC
[46] = tested on: SW-620 colon
[47] = tested on: IGROV1 ovarian
[48] = tested on: HCT-15 colon
[49] = tested on: NCI-H23 lung
[50] = tested on: MCF7 breast
[51] = tested on: SK-OV-3 ovarian
[52] = tested on: K-562 leukemia
[53] = tested on: OVCAR-3 ovarian
[54] = tested on: MALME-3M melanoma
[55] = tested on: OVCAR-4 ovarian

Measured: TGI

CN1CCC(OC(=O)C(O)(c2ccccc2)C2CCCC2)C1 (stereo not given)
> 100 µM: all assays above

Reference: PubChem BioAssay (NCI)
